Xi reactivation = reactivates the inactive X chromosome in mouse fibroblasts | XiGFP mouse fibroblasts, % GFP-positive cells imaging, 3 d; cells co-treated with 5-aza-dC sensitizer; scaled so ellipticine positive control = 100% | activation, % at 7.58 µM | hit rate 0.055% among 360,000 | AID 743238;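 active means mean normalized replicate activation at least 10% and every replicate at or above 10%; inconclusive means only one of the two criteria met; inactive means mean below 10% and not all replicates reach 10%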
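Material: XiGFP fibroblasts, SV40-immortalized; Buffer or medium: DMEM containing 5-aza-dC; Compound dosing: single point; Times: 3 days compound exposure.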
RAD52 anneal inh = blocks human RAD52 DNA annealing; P43351; recombinant RAD52 DNA annealing, FRET fluorescence; inhibition, % at 18.7 µM; hit rate 0.46% among 360,000; AID 651710;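 active means every replicate showing at least 50% inhibition; inconclusive means mean inhibition at least 50% but not in every replicate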
RAD54 inh = RAD54 (human) branch migration inhibition; RAD54 Holliday junction branch migration, FAM/BHQ fluorescence; inhibition, % at 10.4 µM; AID 602329; hit rate 0.14% among 360,000;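 active means mean normalized replicate activity at least 40 and at least half of replicates scoring 40 or more; inconclusive means only one of the two criteria met; inactive means mean below 40 and under half of replicates reaching 40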;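 further: inhibitors cause a drop in the FAM fluorescence signal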
E-selectin induc = induces E-selectin expression in human endothelial cells; P16581; HUVEC E-selectin immunofluorescence imaging; normalized: neutral wells 0, TNF-alpha wells 100; activation, % at 7.58 µM; hit rate 0.37% among 260,000; AID 686992;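 active means mean E-selectin-positive cell signal at least 10% of the positive control, reached in at least 60% of replicates, without over 20% cell loss; inconclusive means no rule given, readout overlaps actives, possibly toxicity-flagged; inactive means the rest, including those meeting only one limit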
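System: HUVEC, human umbilical vein endothelial cells; quantity: 3,000 cells/well; buffer or medium: EGM-2 medium, gelatin-coated wells; dosing: single-point compound dose; detection: immunofluorescence imaging; evaluation: % PE-positive cells; benchmarks: TNF-alpha, DMSO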
UUG fidelity = modulators of start codon recognition fidelity in yeast; AID 602363; activity score, % at 18.7 µM; S. cerevisiae UUG-firefly luciferase reporter, luminescence/redox ratio; actives 0.13% (n = 350,000);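 active = replicate mean at a twofold rise or more, about +100% in these data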;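 note: firefly luciferase made from a UUG start codon reports start codon fidelity; reporter light over untreated wells divided by growth signal over untreated wells; some hits fall short of that in this replicate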
Rad54 DNA ctr = counter-screen for Rad54 inhibitors: DNA binding compounds; shares compounds with RAD54 inh; Acridine orange-DNA displacement, fluorescence polarization, 20 min; AC50, µM (doses to about 35 µM); hit rate 8% among 460; AID 651673;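 active means signal drop giving an AC50 within twice the top valid tested concentration of each sample, actives reach about 35 µM in these data; inactive means activity opposite to expected, plus the rest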;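 further: polarization loss reports compound binding to salmon sperm DNA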
Of the large screens only hits and unclear results are named; the others gave an inactive call (follow-up assays come after a bar, where they were run). This is a sample that favours compounds with a hit; in the whole collection about 0.73% have one here.

COc1ccccc1C1=NOC(Cn2c(NCCCO)nc3c2c(=O)n(C)c(=O)n3C)C1 (stereo unspecified)	RAD54 inh inconclusive | Rad54 DNA ctr inactive
Cc1cccc(Cn2c(Sc3nc(C)cs3)nc3c2c(=O)[nH]c(=O)n3C)c1	RAD54 inh inconclusive (no result: Xi reactivation, RAD52 anneal inh, E-selectin induc) | Rad54 DNA ctr inactive
COCC(=O)N1[C@@H](CO)[C@H](c2ccc(-c3cccc(OC)c3)cc2)C12CN(C(C)=O)C2	none (no result: RAD54 inh, UUG fidelity)
COc1ccccc1NC(=O)Cn1nnc2sc3c(c2c1=O)CC(C)(C)OC3	RAD54 inh inconclusive | Rad54 DNA ctr inactive
CC1(C)Cc2c(sc3nnn(CC(=O)Nc4ccccc4)c(=O)c23)CO1	none
COCCCNCCC(CCC(C)C)c1ccc2c(c1)OCO2 (stereo unspecified)	RAD54 inh inconclusive | Rad54 DNA ctr inactive
CN1CCN(CCNC(=O)c2cc3c(=O)n(C)c4ccccc4c3n2C)CC1	RAD54 inh 64 | Rad54 DNA ctr inactive
Cn1c(C(=O)NCCCN2CCc3ccccc3C2)cc2c(=O)n(C)c3ccccc3c21	none
CCCN1CCN(CCCNC(=O)c2cc3c(=O)n(C)c4ccccc4c3n2C)CC1	RAD54 inh inconclusive | Rad54 DNA ctr inactive
O=c1cc(CSc2n[nH]c(=O)n2C2CC2)c2ccc(O)cc2o1	RAD54 inh inconclusive (no result: E-selectin induc) | Rad54 DNA ctr inactive
COC(=O)C[C@@H]1C=C[C@@H](NC(=O)Nc2ccc(C(F)(F)F)cc2)[C@H](CO)O1	none (no result: UUG fidelity)
COC(=O)C1=C(C)Nc2nc3ccccc3n2C1c1ccccc1F (stereo unspecified)	RAD54 inh inconclusive | Rad54 DNA ctr inactive
CNC(=O)C1=C(C)Nc2nc3ccccc3n2C1c1ccc(F)cc1 (stereo unspecified)	none (no result: E-selectin induc)
COc1ccc(CNC(=O)[C@@H](Cc2ccccc2)NC(=O)[C@H]2O[C@@H](n3ccc(=O)[nH]c3=O)[C@H](O)[C@@H]2O)cc1	none (no result: RAD54 inh, UUG fidelity)
CCCN1CCN(CCCNC(=O)c2cc3c(s2)-c2c(C)cccc2OC3)CC1	none (no result: E-selectin induc)
Cc1cccc2c1-c1sc(C(=O)NCCCN3CCCC(C)C3)cc1CO2 (stereo unspecified)	RAD54 inh 54 (no result: E-selectin induc) | Rad54 DNA ctr inactive
COc1cc(NCCCNC(C)C)c2nccc(C)c2c1	RAD52 anneal inh 60, RAD54 inh 83 (no result: E-selectin induc) | Rad54 DNA ctr inactive
COc1cc(NCc2ccccc2)c2ncn(C(C)C)c2c1	none
Cc1ccnc(Nc2nc(-c3sc(C)nc3C)cs2)c1	RAD54 inh inconclusive | Rad54 DNA ctr inactive
COc1cc(OC)c2nc(C)c3c(c2c1)N(c1ccc(O)cc1)CC3	RAD54 inh 51 (no result: Xi reactivation, RAD52 anneal inh, E-selectin induc) | Rad54 DNA ctr inactive
CCOC(=O)c1c(NC(C)=O)sc2c(O)c(CN3CCN(CC)CC3)ccc12	RAD54 inh 62 (no result: Xi reactivation, RAD52 anneal inh, E-selectin induc) | Rad54 DNA ctr inactive
CCOC(=O)c1c(NC(C)=O)sc2c(OCC(O)CN(CC)CC)c(Br)ccc12 (stereo unspecified)	RAD54 inh 84 (no result: E-selectin induc) | Rad54 DNA ctr inactive
CCOC(=O)c1c(NC(C)=O)sc2c(OC)c(Br)ccc12	none (no result: Xi reactivation, E-selectin induc)
Cc1cc(N2CCN(C)CC2)nc2ccc(NC(=S)NCCN3CCc4ccccc4C3)cc12	Xi reactivation 49, RAD52 anneal inh 81, RAD54 inh 89 | Rad54 DNA ctr inactive
CCCCN(C)CCNC(=S)Nc1ccc2nc(N3CCN(CC)CC3)cc(C)c2c1	RAD52 anneal inh 95, RAD54 inh 81 | Rad54 DNA ctr inactive
CCCCN(C)C(=S)Nc1ccc2nc(N3CCN(CC)CC3)cc(C)c2c1	none (no result: RAD54 inh, UUG fidelity)
CCN1CCN(c2cc(C)c3cc(NC(=S)N(C)Cc4ccccc4)ccc3n2)CC1	none
CCN1CCN(c2cc(C)c3cc(NC(=S)NCCN(C)C)ccc3n2)CC1	RAD52 anneal inh 98, RAD54 inh 93 | Rad54 DNA ctr inactive
COc1ccc(C(=O)Nc2ccc3nc(N4CCN(C)CC4)cc(C)c3c2)c(OC)c1	RAD54 inh 51 | Rad54 DNA ctr inactive
CCN1CCN(c2cc(C)c3cc(NC(=O)c4cccc(OC)c4)ccc3n2)CC1	none
O=C(Nc1ccc(Cl)c(Cl)c1)N[C@H]1CC[C@@H](CCn2cc(C3CCCCC3)nn2)O[C@@H]1CO	none
Cc1cc2oc3cc(NCCC4CCCN4C)ccc3c(=O)c2cc1C (stereo unspecified)	RAD54 inh 69 (no result: E-selectin induc) | Rad54 DNA ctr inactive
O=c1c2ccccc2sc2ccc(NCCCN3CCOCC3)cc12	RAD54 inh 51 | Rad54 DNA ctr inactive
